Literature values as cited in patent US20260126455A1, “Methods and Dosing Regimens for Preventing or Delaying Onset of Alzheimer's Disease and Other Forms of Dementia and Mild Cognitive Impairment” (priority 2020, published 2026).

System: ischemic brain
Conditions: rat, in vivo; cited from earlier work

Which BBB leakage does the source give for VEGF here?
Its BBB leakage is “exacerbated BBB leakage”.
